We go through 1 compound from patent US5583127A, “17-iminomethylalkenyl-5 β, 14 β-androstane and 17-iminoalkyl-5 β, 14 β-androstane derivatives active on the cardiovascular system, and pharmaceutical compositions containing same” (Sigma-Tau Industrie Farmaceutiche Riunite S.p.A., priority 1993, dated 1996).

The assay addresses Na^+, K^+ -ATPase receptor (Homo sapiens, UniProt P05023). Briefly: displacement of the specific 3H-ouabain binding from the Na+,K+-ATPase receptor. To be noted: displacement of specific 3H-ouabain binding.

Each structure is given as a SMILES string.

As to `C[C@]12CC[C@H](O)C[C@H]1CC[C@@H]1[C@@H]2CC[C@]2(C)[C@@H](/C=C/C=N/O)CC[C@]12O`, the “Binding ^3 H-Ouab. Displacement log IC50” value is recorded as 5.6.
